# Ab-14 heavy chain CDR variants: yeast mating affinities

The measurements come from Engelhart et al. 2022 (doi:10.1038/s41597-022-01779-4) through the FLAb antibody collection.

Target: peptide PDVDLGDISGINAS, taken from heptad repeat 2 (HR2) of SARS-CoV-2 spike.

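The parent was found by panning a naive human phage display library on the peptide. Variants in AAYL49 differ from the parent at up to three CDR positions; double and triple changes were sampled at random. The scFvs were displayed on barcoded MATa yeast, the peptide on MATalpha yeast. Binding brings cells together so that they mate, and sequencing counts the barcode pairs among the diploids. Scores were corrected for input abundance and mapped to Kd with protein pairs of known affinity run in the same pool. Each pool was mated in three replicate cultures.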

Ab-14 is the parent antibody, in scFv form: VH, then a (GGGGS)3 linker, then VL. The light chain is unchanged in all variants.
VH: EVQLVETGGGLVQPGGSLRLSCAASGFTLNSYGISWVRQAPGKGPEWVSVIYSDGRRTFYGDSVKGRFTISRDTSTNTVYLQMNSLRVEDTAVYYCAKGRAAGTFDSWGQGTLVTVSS
VL: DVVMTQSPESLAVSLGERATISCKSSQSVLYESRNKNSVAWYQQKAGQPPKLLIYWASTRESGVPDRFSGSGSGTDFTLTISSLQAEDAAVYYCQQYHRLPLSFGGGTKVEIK

Positions count from residue 1 of the parent VH; F27R puts R in place of F. Numbers give log10(Kd / nM), so 0 is 1 nM and 3 is 1 µM. Smaller is tighter. "n.d." means that the variant was in the library but no mating with the target was seen in that replicate; the authors take this as a sign of poor binding, and no number exists. For reference, the parent read 0.65 as the reference entry and 4.11 (one replicate of three) as a member of this library. Background: pairings of library AAYL49 with three empty control strains gave a value in 15% of cases (median 4.06, 5th percentile 2.83). Values in that range, when seen in few replicates, are hard to tell from nonspecific mating. Also given: how often the same scFv was detected with the empty control strains, with their mean in brackets.

changes	replicates, log10 nM	empty controls
F27R/V64Y/K65A	n.d. n.d. n.d.	2 of 9 (3.35)
T58P/S63H	n.d. 3.55 n.d.	1 of 9 (3.49)
G33F/S63A/R100I	n.d. n.d. n.d.	1 of 9 (2.70)
T28V/K65E/A102W	3.92 n.d. n.d.	2 of 9 (4.30)
F27E/Y32C/D62T	3.85 3.95 n.d.	1 of 9 (4.45)
L29V/T58A/T104F	n.d. n.d. n.d.	2 of 9 (3.09)
T28V/S53I/F59S	n.d. n.d. n.d.	0 of 9
F27K/D54R/R100G	n.d. n.d. n.d.	1 of 9 (3.02)
S31L/G61S/R100E	0.23 0.56 0.33	1 of 9 (3.62)
R57T/D62C/F105R	n.d. n.d. n.d.	0 of 9
N30C/S53D/K65P	4.78 n.d. n.d.	1 of 9 (3.43)
G33H/Y52F/D106C	n.d. n.d. 6.05	2 of 9 (3.98)
F27C/N30A/D62N	2.61 n.d. n.d.	0 of 9
G33P/S63C/A101Y	n.d. 3.12 3.09	2 of 9 (3.66)
T28L/I51A/Y52H	n.d. n.d. n.d.	0 of 9
V50N/F59P/S63N	n.d. 2.73 n.d.	0 of 9
T28H/G55H/K65E	n.d. n.d. n.d.	0 of 9
S53A/Y60D/S107Q	n.d. 1.90 2.21	2 of 9 (4.11)
L29Q/R57W/F59Q	n.d. n.d. n.d.	0 of 9
G61E/K65Q/S107V	n.d. n.d. n.d.	1 of 9 (3.15)
V50I/S63C/G99M	n.d. 3.77 n.d.	0 of 9
Y32E/D54P/K65F	n.d. n.d. n.d.	1 of 9 (4.03)
I34W/I51Y/R100K	n.d. n.d. n.d.	0 of 9
T28E/G55K/F105I	n.d. n.d. n.d.	0 of 9
S53G/F59L	4.24 5.46 6.43	4 of 9 (4.34)
G33P/D54K/Y60D	n.d. n.d. n.d.	0 of 9
G33Q/S35V/K65G	n.d. n.d. 3.59	2 of 9 (4.09)
F59W/Y60E/K65A	3.86 n.d. 4.37	6 of 9 (4.41)
Y52P/G99W	n.d. n.d. n.d.	0 of 9
S35E/R56H	n.d. n.d. n.d.	0 of 9
F27R/T58R/T104E	n.d. n.d. 1.85	1 of 9 (1.95)
F27C/G103R	n.d. 1.93 1.87	0 of 9

The last 3 entries again:

| changes | replicates, log10 nM | empty controls |
|---|---|---|
| S35E/R56H | n.d. n.d. n.d. | 0 of 9 |
| F27R/T58R/T104E | n.d. n.d. 1.85 | 1 of 9 (1.95) |
| F27C/G103R | n.d. 1.93 1.87 | 0 of 9 |